Laboratory results from PMC3326523, “Histone Recognition and Large-Scale Structural Analysis of the Human Bromodomain Family” (Cell, 2012).

Tests used:
[1] = target: BRD2(2), second bromodomain of BRD2 (human) (UniProt P25440); test: ITC; peptide (mM stock) titrated into bromodomain (about 50 μM), by the concentrations in the tables; 10 or 15°C, 50 mM HEPES pH 7.5, 150 mM NaCl; single binding site model
[2] = target: BRD2(1), first bromodomain of BRD2 (human) (UniProt P25440); test: as above
[3] = target: Histone H4 K5acK12ac peptide (Homo sapiens) (UniProt P62805); conditions: cited from earlier work
[4] = target: Histone H4 K12ac peptide (Homo sapiens) (UniProt P62805); conditions: cited from earlier work
[5] = target: BRDT(1), first bromodomain of BRDT (human) (UniProt Q58F21); test: ITC; peptide (mM stock) titrated into bromodomain (about 50 μM), by the concentrations in the tables; 10 or 15°C, 50 mM HEPES pH 7.5, 150 mM NaCl; single binding site model
[6] = target: BRD2(2), second bromodomain of BRD2 (human) (UniProt P25440); test: ITC; as a1; rows with N of about 0.5 or 0.25: two or more bromodomains on one peptide, apparent binding constants, events not deconvoluted
[7] = target: BRD2(1), first bromodomain of BRD2 (human) (UniProt P25440); test: as above
[8] = target: CREBBP bromodomain (human) (UniProt Q92793); test: ITC; peptide (mM stock) titrated into bromodomain (about 50 μM), by the concentrations in the tables; 10 or 15°C, 50 mM HEPES pH 7.5, 150 mM NaCl; single binding site model
[9] = target: BRD4(2), second bromodomain of BRD4 (human) (UniProt O60885); test: as above
[10] = target: TAF1(2), second bromodomain of TAF1 (human) (UniProt P21675); test: as above

**Q.** Which results are given for H4K12/16 peptide GKacGGAKacRHRKV?
**A.** Kd [1]: 27.2 µM; stoichiometry N [1]: 1; Kd [2]: 29.4 µM; stoichiometry N [2]: 1

**Q.** Which results are given for BRD2 bromodomain (from UniProt P25440)?
**A.** Kd [3]: 360 µM; Kd [4]: 2900 µM

**Q.** With “H4K5/8/12/16 peptide YSGRGKacGGKacGLGKacGGAKacRHRK” as the substance, how does the Kd [5] read?
**A.** 23 µM

**Q.** What about the stoichiometry N [5] of the same substance?
**A.** 2.04

**Q.** What about the Kd [6] of the same substance?
**A.** 34.7 µM

**Q.** And the stoichiometry N [6]?
**A.** 0.5

**Q.** And the Kd [7]?
**A.** 3.7 µM

**Q.** What about the stoichiometry N [7] of the same substance?
**A.** 0.53

**Q.** What does the source list for H4K12/16/20 peptide GKacGGAKacRHRKacV?
**A.** Kd [6]: 41 µM; stoichiometry N [6]: 0.5; Kd [7]: 27.9 µM; stoichiometry N [7]: 0.5

**Q.** With H4K12 peptide GKGLGKacGGAKRY as the substance, how does the Kd [5] read?
**A.** 150 µM

**Q.** And the stoichiometry N [5]?
**A.** 0.96

**Q.** For H3K14 peptide KSTGGKacAPRKQY, which stoichiometry N [8] is on record?
**A.** 1.03

**Q.** What about the Kd [9] of the same substance?
**A.** 260 µM

**Q.** And the stoichiometry N [9]?
**A.** 1.03

**Q.** What about the stoichiometry N [10] of the same substance?
**A.** 1.03

**Q.** With H4K5/K8 peptide SGRGKacGGKacGLGY as the substance, how does the Kd [1] read?
**A.** 32.8 µM

**Q.** What about the stoichiometry N [1] of the same substance?
**A.** 0.96

**Q.** What about the Kd [2] of the same substance?
**A.** 13.5 µM

**Q.** What about the stoichiometry N [2] of the same substance?
**A.** 0.99

**Q.** Which Kd [2] does the source give for H4K8/12 peptide GKacGLGKacGGAKR here?
**A.** 65.8 µM

**Q.** And the stoichiometry N [2]?
**A.** 1

**Q.** And the Kd [6]?
**A.** 55.9 µM

**Q.** And the stoichiometry N [6]?
**A.** 0.51
